Earlier results, collected in patent publication US12589090B2, “Compounds and methods for the treatment of degenerative disorders” (Aquilus Pharmaceuticals, Inc., priority 2019, dated 2026).

Tests used:
[1] = system: SOD-1-G93A (SOD-1) strain; details: SOD-1-G93A mice; cited from earlier work
human ALS patients = details: stated as equivalent of the mouse survival gain; cited from earlier work

For `Nc1nc2ccc(OC(F)(F)F)cc2s1` [riluzole], the “increase of mean survival in mutant mice” value [1] is given as 10 to 14 days and the “increase in survival in human ALS patients” value (human ALS patients) is given as about 3 month.
